Test results: ChEMBL document CHEMBL1126090, “Electrophilic opioid ligands. Oxygen tethered alpha-methylene-gamma-lactone, acrylate, isothiocyanate, and epoxide derivatives of 6 beta-naltrexol” (J Med Chem, 1992)

By UniProt entry, the sequences of proteins in these tests, tags left out. Where a name states a change or a piece, a line headed by the entry shows the natural chain unless it says otherwise.
UniProt P41144: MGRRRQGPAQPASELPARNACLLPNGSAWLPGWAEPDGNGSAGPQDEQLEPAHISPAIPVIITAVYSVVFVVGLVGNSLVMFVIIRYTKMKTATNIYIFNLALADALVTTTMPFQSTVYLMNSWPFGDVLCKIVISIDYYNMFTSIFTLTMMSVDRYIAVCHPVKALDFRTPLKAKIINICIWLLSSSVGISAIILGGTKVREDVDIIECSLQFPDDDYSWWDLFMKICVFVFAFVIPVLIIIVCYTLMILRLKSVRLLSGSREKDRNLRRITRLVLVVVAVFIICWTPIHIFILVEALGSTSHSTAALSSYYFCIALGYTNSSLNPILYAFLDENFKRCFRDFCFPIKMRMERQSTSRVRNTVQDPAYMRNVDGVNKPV
UniProt P97266, whole entry, looked up: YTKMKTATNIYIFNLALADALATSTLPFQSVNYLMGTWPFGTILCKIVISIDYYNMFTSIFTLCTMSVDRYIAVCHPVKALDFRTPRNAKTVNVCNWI

Tests used:
[1] = molecular target: Kappa-type opioid receptor (Cavia porcellus, UniProt P41144); assay: Displacement of 0.5 nM [3H]bremazocine from guinea pig brain membrane opioid receptor kappa with 100 nM DAGO and 100 nM DPDPE
[2] = molecular target: Mu-type opioid receptor (Cavia porcellus, UniProt P97266)
[3] = molecular target: Opioid receptors; mu/kappa/delta; assay: Inhibition of 0.5 nM [3H]bremazocine binding to guinea pig brain membrane opioid receptors

SMILES: C=C(CO[C@@H]1CC[C@@]2(O)[C@H]3Cc4ccc(O)c5c4[C@@]2(CCN3CC2CC2)[C@H]1O5)C(=O)OC [listing 1 of 2 here]
- IC50 [1]: 21 nM
- IC50 [2]: 2.5 nM

SMILES: C=C(CO[C@@H]1CC[C@@]2(O)[C@H]3Cc4ccc(O)c5c4[C@@]2(CCN3CC2CC2)[C@H]1O5)C(=O)OC [listing 2 of 2 here]
- IC50 [3]: 11 nM
